# According to PMC9781268, “2-Arylpropionic Acid Pyrazolamides as Cannabinoid CB2 Receptor Inverse Agonists Endowed with Anti-Inflammatory Properties” (Pharmaceuticals, 2022):
# Amino acid sequences for entries named in this document (tags omitted).
# UniProt P34972, whole entry: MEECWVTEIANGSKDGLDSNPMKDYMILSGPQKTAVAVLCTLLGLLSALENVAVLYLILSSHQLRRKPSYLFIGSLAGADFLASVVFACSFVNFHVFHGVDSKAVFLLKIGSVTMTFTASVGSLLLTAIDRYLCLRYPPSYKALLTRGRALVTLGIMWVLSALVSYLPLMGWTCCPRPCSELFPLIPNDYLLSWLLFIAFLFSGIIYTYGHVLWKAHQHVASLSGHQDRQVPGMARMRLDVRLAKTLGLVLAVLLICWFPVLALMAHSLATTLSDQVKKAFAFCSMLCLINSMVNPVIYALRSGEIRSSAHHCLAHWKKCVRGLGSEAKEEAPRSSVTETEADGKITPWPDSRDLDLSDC
# Key:
# [1] = Parallel artificial membrane permeability assay, gastrointestinal (PAMPA-GI / PAMPA-GTI); details: Table S1, PAMPA-GTI
# human CB2 = human CB2 (Homo sapiens, UniProt P34972); test: Agonist activity, cAMP in CB2-transfected CHO cells; type: cell-based; parameters: host or cells: CHO cells; details: CB2-expressing CHO cells, 100 nM, 10 μM forskolin
SMILES,Classification [1],Pe Exp [1],Fa ([1]; absorbed fraction),Effect on cAMP production by forskolin (human CB2)
"O=C(O)c1cc(/N=N/c2ccc(S(=O)(=O)Nc3ccccn3)cc2)ccc1O [Sulfassalazine, reference compound]",LOW (low intestinal permeability: <29%),"0,45 10-6 cm/s","15,5%",
"Cc1c(C(=O)c2cccc3ccccc23)c2cccc3c2n1[C@H](CN1CCOCC1)CO3 [WIN 55212-2, reference compound]",,,,completely abolished the production of cAMP by forskolin
